The numbers were not newly measured in paper PMC6985102 (Scientific Reports, 2020), which cites them from elsewhere.

On the set-up of this series: method as in PMID 13064247. Particulars: mouse; cited from earlier work.

In the case of “I^131-labelled mouse albumin: I^131-labelled mouse albumin, literature comparator for half-life”, the half-life was 21 h.

By half-life is commonly meant how long it takes for the measured level to halve.
